The record followed here is ChEMBL document CHEMBL1133595, “Discovery of chiral N,N-disubstituted trifluoro-3-amino-2-propanols as potent inhibitors of cholesteryl ester transfer protein” (J Med Chem, 2000).

This assay has as its target T1, Cholesteryl ester transfer protein (Homo sapiens, UniProt P11597).
T1 sequence (P11597 whole entry): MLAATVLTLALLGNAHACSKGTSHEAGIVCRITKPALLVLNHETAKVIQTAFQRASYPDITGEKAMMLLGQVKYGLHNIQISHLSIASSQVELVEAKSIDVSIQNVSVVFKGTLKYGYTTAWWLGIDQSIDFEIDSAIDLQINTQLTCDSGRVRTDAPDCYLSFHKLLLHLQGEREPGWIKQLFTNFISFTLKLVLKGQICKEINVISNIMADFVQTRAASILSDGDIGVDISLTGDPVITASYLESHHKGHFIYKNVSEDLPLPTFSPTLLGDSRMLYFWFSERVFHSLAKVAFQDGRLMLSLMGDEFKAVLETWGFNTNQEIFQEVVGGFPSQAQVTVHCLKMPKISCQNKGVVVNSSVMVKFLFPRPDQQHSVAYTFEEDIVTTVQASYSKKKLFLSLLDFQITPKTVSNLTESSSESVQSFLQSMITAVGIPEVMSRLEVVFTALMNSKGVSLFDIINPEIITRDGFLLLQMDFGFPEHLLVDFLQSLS
Put plainly: Tested for inhibiting CETP-mediated transfer of [3H]-CE from HDL to LDL in vitro under buffered assay conditions in human serum. Format: cell-free.

As usually defined, the IC50 is the concentration at which inhibition is half-maximal. A low value points to higher potency.

The compound `O[C@H](CN(Cc1cccc(OC(F)(F)C(F)F)c1)c1cccc(Oc2ccccc2)c1)C(F)(F)F` had an IC50 of 0.6 µM. `OC(CN(Cc1cccc(OC(F)(F)C(F)F)c1)c1cccc(Oc2ccccc2)c1)C(F)(F)F` (configuration not stated) returned a half-inhibitory concentration (IC50) of 6 µM.
